The values that follow come from PubChem BioAssay AID1553 (Sanford-Burnham Center for Chemical Genomics, 2009).

For the assay, the system named is HeLa cells, 3H-mannose incorporation into glycoproteins. Kind of assay: increase in 3H-mannose incorporation into HeLa proteins, late-stage follow-up, orthogonal assay for PMI inhibitor project, HeLa cells (AID 1553).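 Note: 1 fold = DMSO treated HeLa control cells; higher fold signals phosphomannose isomerase inhibition routing mannose into glycosylation.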

Molecules are shown by their SMILES. The source made the active and inactive calls.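 Rule for the calls: active = compounds graded as giving a low, moderate or strong rise in tritium labelling of cell protein versus solvent control; inactive = the rest.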

As for `O=P(Nc1nccs1)(c1ccccc1)c1nc2ccccc2s1` (configuration not stated), the fold increase 3H incorporation runs as follows: (at 100 µM) inactive: 0.7; (fold increase, at 25 µM, stronger effect = higher value) 0.7.
